Target: T1, A1-adenosine receptor (Rattus norvegicus, UniProt P25099)
T1 construct: Rat cerebral cortical membranes and striatal membranes were prepared; from tissue; host or cells: rat cerebral cortex membranes
Assay: Inhibition of [3H]N6-phenylisopropyladenosine binding to A1 receptors
Settings: rat cerebral cortex membranes, 1 nM [3H]PIA

Chains of the proteins cited; added tags and fusions are not shown.
UniProt P25099, whole entry: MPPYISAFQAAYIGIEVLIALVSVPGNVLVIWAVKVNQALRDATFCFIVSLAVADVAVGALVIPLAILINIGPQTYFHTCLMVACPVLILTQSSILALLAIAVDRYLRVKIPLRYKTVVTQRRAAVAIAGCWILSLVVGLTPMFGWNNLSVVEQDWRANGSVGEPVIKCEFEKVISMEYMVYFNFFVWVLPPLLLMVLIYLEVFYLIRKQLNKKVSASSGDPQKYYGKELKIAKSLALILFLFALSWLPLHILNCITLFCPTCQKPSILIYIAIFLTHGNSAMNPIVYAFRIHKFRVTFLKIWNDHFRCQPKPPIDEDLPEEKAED

Question: With “3-isobutylmethyl xanthine [Compound 3, reference compound]” as the substance, how does the Ki read?
Answer: 7 µM
